# Reported properties for industrial, environmental and drug-like chemicals

The melting point is given in degrees Celsius.
The boiling point refers to atmospheric pressure (760 mmHg), by the definition of the set.
logP is the log10 of the octanol-water partition coefficient; higher is more lipophilic.
Water solubility is log10 of mol/L, nominally at 25 °C; higher is more soluble.
Vapor pressures (log10 mmHg) refer to near room temperature, 15 to 30 °C; higher is more volatile.
Henry's law constant (air-water partitioning) is log10 of atm·m3/mol, nominally at 25 °C.
fu is the fraction unbound in human plasma, from 0 to 1.

CC(C)C(=O)OC(=O)C(C)C [Isobutyric anhydride] is reported with logP (octanol/water) 1.1 and vapor pressure -0.19 (log10 mmHg). C=CC(=O)NC(C)(C)CC(C)(C)C [N-tert-Octylacrylamide] has logP (octanol/water) 2.25 and log S -2.259 (log10 mol/L) and vapor pressure -3.185 (log10 mmHg). For Cc1cccc(CC(=O)O)c1 [m-Tolylacetic acid] the data give logP (octanol/water) 1.95 and vapor pressure -1.227 (log10 mmHg). NC(N)=Nc1nc2ccccc2o1 [N-1,3-benzoxazol-2-ylguanidine] is reported with melting point 180 °C and log S -2.765 (log10 mol/L). COCCOc1cnc(NS(=O)(=O)c2ccccc2)nc1 [Glycodiazine] has log S -3.397 (log10 mol/L) and plasma fu 0.2. CCCCOC(=O)c1ccc(C(=O)OCCCC)cc1 [1,4-Dibutyl benzene-1,4-dicarboxylate] is reported with melting point 14.7 °C and vapor pressure -3.545 (log10 mmHg). The entry for CCCC(=NOCC(C)Oc1ccc(Cl)cc1)C1=C(O)CC(C2CCCSC2)CC1=O (stereo not given) [Profoxydim] lists log S -4.939 (log10 mol/L) and vapor pressure -5.893 (log10 mmHg) and Henry's law constant -6.76 (log10 atm·m3/mol). O=c1[c-](-c2cccc(C(F)(F)F)c2)c(=O)[n+]2ccccc2n1Cc1cncnc1 [Triflumezopyrim] has melting point 189.3 °C and logP (octanol/water) 1.24 and log S -3.239 (log10 mol/L) and vapor pressure -9.684 (log10 mmHg).

The entry for Nc1ccc(N)c(CCO)c1.O=S(=O)(O)O [Hydroxyethyl-p-phenylenediamine sulphate] lists logP (octanol/water) 0.24 and vapor pressure -10.38 (log10 mmHg). The entry for Oc1cn2c(n1)Nc1ccc(Cl)c(Cl)c1C2 [Anagrelide] lists logP (octanol/water) 2.4 and log S -2.963 (log10 mol/L). CCCCCCCC1CCCC1=O (stereo not given) [2-Heptylcyclopentanone] is reported with logP (octanol/water) 3.8 and log S -3.769 (log10 mol/L) and vapor pressure -1.745 (log10 mmHg). Cc1cc(C)c(S(=O)(=O)NC2CCCCC2)c(C)c1Nc1ccc(Nc2c(C)cc(C)c(S(=O)(=O)NC3CCCCC3)c2C)c2c1C(=O)c1ccccc1C2=O is reported with melting point 296 °C and log S -4.819 (log10 mol/L). Listed for O=C(O)CCCCCCCCCCCCCCC(=O)O [Hexadecanedioic acid]: logP (octanol/water) 4.67 and log S -4.75 (log10 mol/L). The entry for NC(=O)CC1(CC(=O)O)CCCCC1 [1,1-Cyclohexanediacetic acid monoamide] lists logP (octanol/water) 0.73 and log S -1.871 (log10 mol/L). The entry for CC(O)(c1ccc(Cl)cc1)c1ccc(Cl)cc1 [Chlorfenethol] lists log S -4.44 (log10 mol/L) and vapor pressure -6.269 (log10 mmHg) and Henry's law constant -7.893 (log10 atm·m3/mol). CC(=O)OCC(CCn1cnc2cnc(N)nc21)COC(C)=O [Famciclovir] is reported with logP (octanol/water) 0.6 and log S -2.386 (log10 mol/L) and plasma fu 0.85.

The entry for CCC(COC(=O)CCS)(COC(=O)CCS)COC(=O)CCS lists logP (octanol/water) 2.8 and log S -3.095 (log10 mol/L) and vapor pressure -6.924 (log10 mmHg). Listed for CS(=O)(=O)Oc1ccc(Nc2ccc(O)c3c2C(=O)c2ccccc2C3=O)cc1: melting point 182 °C and logP (octanol/water) 2.49 and log S -6.214 (log10 mol/L). For CC(O)COc1ccc(C(C)(C)c2ccc(OCC(C)O)cc2)cc1 (stereo not given) [Bisphenol A bis(2-hydroxypropyl) ether] the data give melting point 61 °C and logP (octanol/water) 3.5 and log S -3.5 (log10 mol/L) and vapor pressure -7.763 (log10 mmHg). Cc1ccc([C@@H]2O[C@H](COC(=O)C(C)(C)C)[C@@H](OC(=O)C(C)(C)C)[C@H](OC(=O)C(C)(C)C)[C@H]2OC(=O)C(C)(C)C)cc1Cc1ccc(-c2ccc(F)cc2)s1 is reported with melting point 141.7 °C and vapor pressure -9.907 (log10 mmHg). For CCCCc1ccc(-c2ccc(-c3ccc(CC)cc3)c(F)c2F)cc1 the data give melting point 99 °C and bp 431 °C and log S -7.244 (log10 mol/L) and vapor pressure -7.555 (log10 mmHg). O=S(=O)(O)CS(=O)(=O)O [Methanedisulfonic acid] is reported with bp 263 °C and logP (octanol/water) -1.49 and vapor pressure -7.783 (log10 mmHg). Nc1nccnc1C(=O)O [3-Aminopyrazine-2-carboxylic acid] is reported with log S -1.763 (log10 mol/L) and vapor pressure -5.483 (log10 mmHg). CCCCC(CC)COC(=O)c1ccc([N+](=O)[O-])cc1 (stereo not given) [2-Ethylhexyl 4-nitrobenzoate] has bp 358.7 °C and log S -5.3 (log10 mol/L) and vapor pressure -5.62 (log10 mmHg).

The entry for OCC(CO)OB(OC(CO)CO)OC(CO)CO lists melting point -0.075 °C and vapor pressure -3.472 (log10 mmHg). For O=[N+]([O-])c1cc(OCc2ccccc2)ccc1C=CN1CCCC1 [1-[2-[2-Nitro-4-(phenylmethoxy)phenyl]ethenyl]pyrrolidine] the data give melting point 110.5 °C and logP (octanol/water) 2.8 and vapor pressure -8.646 (log10 mmHg). The entry for CCOC1=C(O)C(=O)O[C@@H]1[C@@H](O)CO [3-O-Ethylascorbic acid] lists logP (octanol/water) -0.8 and vapor pressure -8.072 (log10 mmHg). Listed for CCCCCCOC(=O)CCC [Hexyl butyrate]: log S -3.929 (log10 mol/L) and vapor pressure -0.516 (log10 mmHg). The entry for CCCCCCCCCC[C@H]1O[C@H]1CCCCC(C)C [cis-7,8-Epoxy-2-methyloctadecane] lists log S -8.17 (log10 mol/L) and vapor pressure -3.678 (log10 mmHg).

A selection of 4 entries from above:

{"smiles": "Cc1cccc(CC(=O)O)c1", "name": "m-Tolylacetic acid", "logP (octanol/water)": "1.95", "vapor pressure (log10 mmHg)": "-1.227"}
{"smiles": "Nc1nccnc1C(=O)O", "name": "3-Aminopyrazine-2-carboxylic acid", "log S (log10 mol/L)": "-1.763", "vapor pressure (log10 mmHg)": "-5.483"}
{"smiles": "CCCC(=NOCC(C)Oc1ccc(Cl)cc1)C1=C(O)CC(C2CCCSC2)CC1=O", "stereo": "stereo not given", "name": "Profoxydim", "log S (log10 mol/L)": "-4.939", "vapor pressure (log10 mmHg)": "-5.893", "Henry's law constant (log10 atm·m3/mol)": "-6.76"}
{"smiles": "Cc1ccc([C@@H]2O[C@H](COC(=O)C(C)(C)C)[C@@H](OC(=O)C(C)(C)C)[C@H](OC(=O)C(C)(C)C)[C@H]2OC(=O)C(C)(C)C)cc1Cc1ccc(-c2ccc(F)cc2)s1", "melting point (°C)": "141.7", "vapor pressure (log10 mmHg)": "-9.907"}

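The OPERA project collected these measurements from public sources as training and test data for property models. The files give a single number for a compound and property, which may rest on several reports. How each value was measured is not recorded, so precision varies. The measured form (salt, isomer or mixture) is not always the one drawn. Some upstream entries may be estimates or bounds without being marked so.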

Data: OPERA 2.9 data sets, kmansouri/OPERA on GitHub.